Experimental data from article PMC10746543, “Design principles for cyclin K molecular glue degraders” (Nature Chemical Biology, 2023).
Several values for one entry are separate records, joined by “and”; a condition that tells them apart may be missing. Equal entries are not always repeated.

Key:
HEK293T cells = assay: Drug sensitivity assay (CellTiter-Glo viability) with or without MLN4924 pretreatment; type: cell-based, human; settings: Supplementary Table 2
[1] = system: cyclin K–eGFP degradation reporter; assay: Cyclin K reporter stability analysis (dual-color cyclin K–eGFP reporter); type: cell-based, human; settings: HEK293T, cyclin K reporter assay

## CC(C)S(=O)(=O)c1ccccc1Nc1nc(N[C@@H]2CCCN(CCCCCCCCNC(=O)COc3cccc4c3C(=O)N(C3CCC(=O)NC3=O)C4=O)C2)ncc1Cl (some centres unmarked)
HEK293T cells; MLN4924-mediated cytotoxicity rescue, 10 µM used where n.d.
  Toxicity rescue: 230%
HEK293T cells; read-out: Cellular assays EC50, HEK293T viability, 72 h, compound alone
  EC50: 155 nM
[1]; 5 nM
  Normalized GFP/mCheery: 0.9577 and 0.966
  Round/mCherry ¦ Median (FITC-A :: null): 860 and 848
  Round/mCherry ¦ Median (PE-CF594-A :: null): 2538 and 2481
[1]; 10.7 nM
  Normalized GFP/mCheery: 0.959 and 0.9407
  Round/mCherry ¦ Median (FITC-A :: null): 873 and 868
  Round/mCherry ¦ Median (PE-CF594-A :: null): 2573 and 2608
[1]; 22.9 nM
  Normalized GFP/mCheery: 0.8954 and 0.9462
  Round/mCherry ¦ Median (FITC-A :: null): 831 and 840
  Round/mCherry ¦ Median (PE-CF594-A :: null): 2623 and 2509
[1]; 48.9 nM
  Normalized GFP/mCheery: 0.8876 and 0.9112
  Round/mCherry ¦ Median (FITC-A :: null): 830 and 844
  Round/mCherry ¦ Median (PE-CF594-A :: null): 2643 and 2618
[1]; 105 nM
  Normalized GFP/mCheery: 0.9407 and 0.9131
  Round/mCherry ¦ Median (FITC-A :: null): 868 and 849
  Round/mCherry ¦ Median (PE-CF594-A :: null): 2608 and 2628
[1]; 224 nM
  Normalized GFP/mCheery: 0.9038 and 0.9118
  Round/mCherry ¦ Median (FITC-A :: null): 842 and 851
  Round/mCherry ¦ Median (PE-CF594-A :: null): 2633 and 2638
[1]; 478 nM
  Normalized GFP/mCheery: 0.9081 and 0.9104
  Round/mCherry ¦ Median (FITC-A :: null): 846 and 853
  Round/mCherry ¦ Median (PE-CF594-A :: null): 2633 and 2648
[1]; 2190 nM
  Normalized GFP/mCheery: 0.9153 and 0.9113
  Round/mCherry ¦ Median (FITC-A :: null): 864 and 877
  Round/mCherry ¦ Median (PE-CF594-A :: null): 2668 and 2720
[1]; 4680 nM
  Normalized GFP/mCheery: 0.9089 and 0.9053
  Round/mCherry ¦ Median (FITC-A :: null): 858 and 853
  Round/mCherry ¦ Median (PE-CF594-A :: null): 2668 and 2663
[1]; 10000 nM
  Normalized GFP/mCheery: 0.9331 and 0.9218
  Round/mCherry ¦ Median (FITC-A :: null): 866 and 849
  Round/mCherry ¦ Median (PE-CF594-A :: null): 2623 and 2603
